Source: patent publication US5656600A, “α-ketoamide derivatives as inhibitors of thrombosis” (Corvas International, Inc., priority 1993, dated 1997)

What was measured:
[1] = system: washed human platelets; assay: Thrombin-induced aggregation in washed human platelets
[2] = system: Rat Venous Stasis Model; assay: Venous stasis in rats (thromboplastin plus stasis, inferior vena cava); settings: for % Clot: mean ± S.E.M.
[3] = target: T1, α-thrombin (Homo sapiens, UniProt P00734); assay: Thrombin-induced clotting of purified fibrinogen; settings: preincubation with α-thrombin up to 60 minutes before fibrinogen
[4] = system: pooled normal human plasma; assay: Ex vivo coagulation assay (APTT); settings: normal citrated human plasma; FIG. 3
[5] = system: FeCl3 Model of Thrombosis in Rats; assay: Rat model of FeCl3-induced platelet-dependent arterial thrombosis; settings: for Incidence of Occlusion: occluded/total animals
[6] = target: T1, α-thrombin; assay: Amidolytic thrombin assay (inhibition constant Ki); settings: for kinetics / mechanism of thrombin inhibition: in words
[7] = 0.1 mg/kg i.v. bolus + 10 μg/kg/min i.v. infusion
[8] = 0.1 mg/kg i.v. bolus + 20 μg/kg/min i.v. infusion
[9] = 0.1 mg/kg i.v. bolus + 40 μg/kg/min i.v. infusion

CCCC(CCC)C(=O)N[C@@H](CC(=O)O)C(=O)N1CCC[C@H]1C(=O)N[C@@H](CCCNC(=N)N)C(=O)C(=O)NCC(=O)NCC(=O)NCC(=O)NCC(=O)NCC(=O)N[C@@H](CC(N)=O)C(=O)NCC(=O)N[C@@H](CC(=O)O)C(=O)N[C@@H](Cc1ccccc1)C(=O)N[C@@H](CCC(=O)O)C(=O)N[C@@H](CCC(=O)O)C(=O)N[C@H](C(=O)N1CCC[C@H]1C(=O)N[C@@H](CCC(=O)O)C(=O)N[C@@H](Cc1ccc(O)cc1)C(=O)N[C@@H](CC(C)C)C(=O)O)[C@@H](C)CC
persistence of inhibition of aggregation over the 15 minute course of the assay ([1]; 20nM (compound 8), same or higher concentrations (Hirulog-1), FIG. 4): stable with no recovery of aggregation
IC50 ([1]; α-thrombin 2 nM, extent of aggregation over 1 minute after thrombin, mean ± standard deviation, three determinations): 25 nM
% Clot [2, 7]: 22.03 ± 3.6%
% Clot [2, 8]: 8.25 ± 5.1%
% Clot [2, 9]: 0%
effect on venous thrombus formation induced by stasis and thromboplastin ([2]; summary in words): very efficacious in dose-dependently preventing venous thrombus formation
proteolytic inactivation by thrombin upon prolonged incubation [3]: not proteolytically inactivated by thrombin
prolongation of activated partial thromboplastin time (APTT) [4]: prolonged the APTT in a dose dependent manner
% Clot ([5]; 0.1 mg/kg i.v. bolus + 5 μg/kg/min i.v. infusion, mean ± S.E.M., segments with detectable thrombus): 66.14 ± 3.83%
Incidence of Occlusion ([5]; 0.1 mg/kg i.v. bolus + 5 μg/kg/min i.v. infusion): 5/6
% Clot ([5]; 0.1 mg/kg i.v. bolus + 10 μg/kg/min i.v. infusion, mean ± S.E.M., segments with detectable thrombus): 42.28 ± 12.6%
Incidence of Occlusion [5, 7]: 4/6
% Clot ([5]; 0.1 mg/kg i.v. bolus + 20 μg/kg/min i.v. infusion, mean ± S.E.M., segments with detectable thrombus): 46.13 ± 6.75%
Incidence of Occlusion [5, 8]: 3/6
% Clot [5, 9]: 0%
Incidence of Occlusion [5, 9]: 0/5
fold difference in Ki between compound 8 and 9 [6]: 23,000 fold
Ki ([6]; chromogenic substrate Pefachrome t-PA, HBSA pH 7.5, slow-binding (kon/koff) or Dixon analysis): 0.0019 nM
fold more potent than Hirulog-1 (compound 25) ([6]; direct comparison under the same assay conditions): 230 fold
kinetics / mechanism of thrombin inhibition [6]: slow binding or slow-tight binding kinetics
kinetics / mechanism of thrombin inhibition ([6]; listed as compound 8): predominantly one-step competitive, tight-binding mechanism
